Target: Muscarinic acetylcholine receptor M3 (Cavia porcellus, UniProt Q8VH26)

Molecule `C[N+]1(C)CCC(OC(=O)[C@](O)(c2ccccc2)C2CCCCC2)CC1.[I-]` has a Ki of 0.09 nM.
